{
  "source": "patent US20210379021A1",
  "about": "(Race Oncology Ltd., priority 2018, published 2021)",
  "origin": "cited, not measured here",
  "details": "human, in vivo; cited from earlier work",
  "note": "Structures can show the parent of a compound that is named as a salt.",
  "data": [
    {"molecule": "C(=N\\NC1=NCCN1)/c1c2ccccc2c(/C=N/NC2=NCCN2)c2ccccc12", "note": "[bisantrene, 9,10-anthracenedicarboxaldehyde-bis [(4,5-dihydro-1H-imidazole-2-yl) hydrazine] dihydrochloride]", "values": [
      {"measurement": "vesicant action if extravasated", "result": "potent vesicant"}
    ]}
  ]
}
